From paper PMC6061685 (Toxicological Sciences, 2018)

Biological target: T1, thyroid receptor beta (TRβ) (Homo sapiens, UniProt P10828)
T1 sequence (P10828 1-461): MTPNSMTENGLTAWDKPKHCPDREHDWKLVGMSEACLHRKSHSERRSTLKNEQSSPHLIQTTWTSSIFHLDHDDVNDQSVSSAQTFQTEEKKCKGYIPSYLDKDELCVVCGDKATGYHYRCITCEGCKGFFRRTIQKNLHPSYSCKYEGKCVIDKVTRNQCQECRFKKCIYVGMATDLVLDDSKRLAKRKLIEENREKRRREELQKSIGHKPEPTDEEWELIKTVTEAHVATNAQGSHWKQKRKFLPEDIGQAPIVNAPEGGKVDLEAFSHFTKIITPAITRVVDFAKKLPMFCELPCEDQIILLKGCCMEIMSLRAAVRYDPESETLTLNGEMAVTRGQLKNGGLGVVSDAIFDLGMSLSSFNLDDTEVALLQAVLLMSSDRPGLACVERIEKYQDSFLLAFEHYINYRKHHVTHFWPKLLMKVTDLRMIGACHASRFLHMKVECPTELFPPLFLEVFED
Experiment: U2OS TRβ CALUX antagonist assay
Type: cell-based
Settings: 24 h exposure; with EC50 concentration of T3 ([…] 10^−4 µg/ml)

- TRβ Antagonist Assay IC50: 1.9 µg/mL
Substance: 1-850 thyroid hormone receptor antagonist [TR antagonist (1-850)]
